The record followed here is patent publication US20230265198A1 (TWIST BIOSCIENCE, published 2023).

The target in the experiment is neuropilin-1 (NRP1) on HEK293 cells overexpressing NRP1 (UniProt O14786). Briefly: flow cytometry, HEK293-NRP1 vs HEK293.

For the substance NRP1-133 (antibody), the 100 nM FACS (MFI Ratio) came to 10.8.
